Test [1] relates to S180 sarcoma cells. In words: Growth of KM mice-transplanted S180 sarcoma cells in vivo. On the set-up: unit not given here. As to conditions: Table 12; for Sarcoma volume: V=(1/6)πABC, saline 1.20 ± 0.28; for Sarcoma weight: saline 1.87 ± 0.52. The protocol: S180 sarcoma cells were transplanted intraperitoneally into KM mice for 6-8 days and the ascites aseptically collected. The cell concentration was adjusted to 1×10^7 per ml with 10% FBS RPMI-1640, and 0.2 ml cell suspension was injected through the armpit into each KM mice for developing the sarcoma bearing mice model. […] Intraperitoneal injection of test substances started on the day immediately after tumor transplantation and continued once per day for 20 consecutive days.
On the day after the last test substance administration, the sarcomas were removed from the mice and weighed. The diameters of each sarcoma on the three planes (A, B, C) were measured by a vernier caliper. The volume of the sarcoma was calculated by the formula: V=(⅙)πABC.

Test [2] deals with mice T-lymphocyte. The test can be described thus: Mice T-lymphocyte transformation induced by ConA in vitro (spleen cells, MTT). The test is classed as cell-based, BALB/c mice. As to conditions: for OD: Table 3, ConA 5 μg/ml, 68 hrs. The protocol: The spleens from healthy mice were isolated aseptically and manually dispersed in 10% FBS RPMI-1640 solution using an injection needle. The dispersed cell suspension was further sieved through a 100-gauge 150 μm diameter stainless steel sieve. The spleen cell suspension was adjusted to a density of 4×10^6/ml and was aliquoted onto 96-well cell culture plates at 100 μl/well. Peptides were dissolved in plain RPMI-1640. The design of the groupings was as given below.
Peptide group: 100 μl working peptide solution+75 μl spleen cell suspension+25 μl ConA working solution.
ConA control group: 100 μl RPMI-1640+75 μl spleen cell suspension+25 μl ConA working solution.
Negative control group: 125 μl RPMI-1640+75 μl spleen cell suspension.
The final concentration of ConA in the well was 5 μg/ml. The final concentrations of peptides in the well were 80 μg/ml, 16 μg/ml, 3.2 μg/ml, 0.64 μg/ml, and 0.128 μg/ml. Each peptide group contained three parallel wells, and eight or twelve wells for the control groups. The cells were incubated for 68 hrs at 37° C., 5% CO2. MTT method was used to obtain a reading of OD570 nm of each well referenced at 630 nm on an ELISA reader.

Marks after values point to notes of the source that are not given here.

Regarding CMS-010.32 (VA), the Sarcoma volume in test [1] (250 μg/kg/day) is 0.25 ± 0.14*^@; in test [1] (500 μg/kg/day), 0.40 ± 0.31. Moreover, the Sarcoma weight in test [1] (250 μg/kg/day) was 0.38 ± 0.24*^@; in test [1] (500 μg/kg/day), 0.41 ± 0.35*^@. The OD in test [2] (peptide 0.128 μg/ml, ConA control 0.358 ± 0.028) came out at 0.306 ± 0.033; in test [2] (peptide 0.64 μg/ml, ConA control 0.358 ± 0.028), 0.321 ± 0.048; in test [2] (peptide 3.2 μg/ml, ConA control 0.358 ± 0.028), 0.309 ± 0.030; in test [2] (peptide 16 μg/ml, ConA control 0.358 ± 0.028), 0.273 ± 0.023; in test [2] (peptide 80 μg/ml, ConA control 0.358 ± 0.028, negative control 0.108 ± 0.012), 0.276 ± 0.034. For the same substance, in test [2] (at suitable concentrations, vs ConA positive control P<0.05), the “Effect on mice T-lymphocyte transformation induced by ConA in vitro” value is “suppress”.

The values above are taken from patent US7718764B2, “Biologically active peptide VAPEEHPTLLTEAPLNPK derivatives” (CMS Peptides Patent Holding Company Limited, priority 2004, dated 2010).
